This note sets out measurements from patent US20240374738A1, “BIFUNCTIONAL COMPOUND CAPABLE OF DEGRADING RECEPTOR TYROSINE KINASE AND APPLICATION THEREOF” (TAIBIDI PHARMACEUTICAL TECHNOLOGY (SHIJIAZHUANG) CO., LTD., priority 2023, published 2024).

Sequences of proteins named here, by UniProt entry; tags and fusion partners are left off. Residues count along the entry.
UniProt Q08345, 19-913 limits assumed: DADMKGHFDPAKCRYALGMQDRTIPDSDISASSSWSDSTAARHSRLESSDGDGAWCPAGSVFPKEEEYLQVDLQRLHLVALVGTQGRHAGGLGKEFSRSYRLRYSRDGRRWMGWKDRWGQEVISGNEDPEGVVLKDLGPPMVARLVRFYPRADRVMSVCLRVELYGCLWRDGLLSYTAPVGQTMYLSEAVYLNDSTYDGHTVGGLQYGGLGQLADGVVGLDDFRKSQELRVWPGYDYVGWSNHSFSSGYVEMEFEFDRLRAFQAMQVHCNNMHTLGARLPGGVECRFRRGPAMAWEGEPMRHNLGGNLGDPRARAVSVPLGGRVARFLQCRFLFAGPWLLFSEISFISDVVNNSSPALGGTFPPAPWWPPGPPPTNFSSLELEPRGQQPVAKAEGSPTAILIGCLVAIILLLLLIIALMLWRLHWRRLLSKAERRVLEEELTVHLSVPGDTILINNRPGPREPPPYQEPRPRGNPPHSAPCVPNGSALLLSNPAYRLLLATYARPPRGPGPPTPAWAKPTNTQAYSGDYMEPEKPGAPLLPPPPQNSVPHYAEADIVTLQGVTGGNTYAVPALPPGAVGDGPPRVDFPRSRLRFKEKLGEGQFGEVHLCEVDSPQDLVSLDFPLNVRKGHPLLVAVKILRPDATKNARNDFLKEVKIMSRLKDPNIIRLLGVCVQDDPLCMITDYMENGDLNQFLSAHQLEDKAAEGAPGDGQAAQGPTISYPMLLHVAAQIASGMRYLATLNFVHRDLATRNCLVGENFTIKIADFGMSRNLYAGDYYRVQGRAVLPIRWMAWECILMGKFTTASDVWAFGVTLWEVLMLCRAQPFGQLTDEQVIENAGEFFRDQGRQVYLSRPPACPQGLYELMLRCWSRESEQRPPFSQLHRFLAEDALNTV

One assay concerns MKN45. Briefly: Growth inhibition of gastric cancer cells MKN45 (CCK-8). The note with it: read-out: IC50-MKN45, half inhibitory concentration, 72 hours. The method, then:
(§1) Inoculate gastric cancer cells (SNU5 or MKN45) into a 96 well plate at a concentration of […], with 100 μl added to each well. Incubate for 30 minutes. Observe the cell status under a microscope. Prepare compounds, weigh a certain amount of the series compounds or reference drug cabozantinib of this patent, first prepare a high concentration mother liquor with pure DMSO, and use gradient dilution method to prepare a concentration of 200 μM, 60 μM, 20 μM, 6 μM, 2 μM, 600 nM, 200 nM, 0 nM drug solution, shake to make it fully mixed. The control group was prepared with cabozantinib using the same solvent and method.
(§2) After preparation, add 1 μl of drug solution to each well of the 96 well plate, and then add 100 μl of culture medium. Repeat each dose three times. Gently shake to allow the cells and medication to come into full contact and incubate in the incubator for 72 hours. 72 hours later, remove and color with CCK-8 reagent kit. Add 20 μl of CCK-8 reagent to each well, gently shake well, and incubate in the incubator for 1 hour. After 1 hour, remove and measure the absorbance of each well using an enzyme-linked immunosorbent assay (ELISA) reader at a wavelength of 450 nm.
(§3) According to the formula: Cell growth inhibition rate=[1−(absorbance of experimental group absorbance of culture medium control group)/(absorbance of blank control group−absorbance of culture medium control group)]×100%. It can be concluded that the compound has the ability to inhibit the growth of gastric cancer cells at the current dose and time.
(§4) Draw a graph based on the gradient of concentration and use GraphPad Prism 9 software (GraphPad Software, La Jolla, CA) to calculate the maximum inhibitory concentration (IC50) at 50%.
(§5) Referring to steps 1 and 2 of this embodiment, the inhibitory effect of the compound of the present invention on the growth of cancer cells and the degradation effect of target proteins were measured, and the following results were obtained (see Table 2 below).
(§6) The growth inhibitory effects of the compound of the present invention on tumor cell lines MKN45 and SNU5 were measured. The activity is expressed as half inhibitory concentration (C50). The results are shown in Table 2 below; When the half inhibitory concentration is less than or equal to 100 nM, the compound activity is labeled as “++++”; When the half inhibitory concentration is greater than 100 nM and less than 500 nM, the compound activity is labeled as […] and less than 1000 nM, the compound activity is labeled as “++”; When the half inhibitory concentration is greater than 1000 nM and less than 3000 nM, the compound activity is marked as “+”; When the half inhibitory concentration is greater than 3000 nM, the compound activity is marked as […]

For a further assay, the system named is SNU5. Put plainly: Growth inhibition of gastric cancer cells SNU5 (CCK-8). The note with it: read-out: IC50-SNU5, half inhibitory concentration, 72 hours. The method, then: as §1, §2, §3, §4, §5, §6
In the next assay the target is DDR1 (Homo sapiens, UniProt Q08345). Put plainly: Degradation of DDR1 in tumor cell MKN45 (Western blot). The note with it: maximum degradation percentage, MKN45 cells, 24 hours. In general terms: Immunoblotting shows a protein as a band on a membrane.

Regarding `O=C1CCC(N2Cc3cc(NC(=O)CCN4C[C@@H]5C[C@H]4CN5CC4CCN(c5cc6nccc(Oc7ccc(NC(=O)C8(C(=O)Nc9ccc(F)cc9)CC8)cc7)c6cc5F)CC4)ncc3C2=O)C(=O)N1` (some centres unmarked), the IC50 with MKN45 and in the assay with SNU5 was below 100 nM throughout. Moreover, the Dmax-DDR1 entry on DDR1 is “++ (When the maximum degradation percentage is greater than 75% and less than 85%)”.
`COc1cc2c(Oc3ccc(NC(=O)C4(C(=O)Nc5ccc(F)cc5)CC4)cc3)ccnc2cc1N1CCC(CN2CC3CC(C2)N3CCC(=O)Nc2cc3c(cn2)C(=O)N(C2CCC(=O)NC2=O)C3)CC1` (centres unmarked): the IC50 in the assay on MKN45 and in the assay with SNU5 was below 100 nM throughout. Moreover, the Dmax-DDR1 result at DDR1 is “++ (When the maximum degradation percentage is greater than 75% and less than 85%)”.
`COc1cc2c(Oc3ccc(NC(=O)C4(C(=O)Nc5ccc(F)cc5)CC4)cc3)ccnc2cc1N1CCC(CN2CCN(CCNc3cccc4c3CN(C3CCC(=O)NC3=O)C4=O)CC2)CC1` (centres unmarked): the IC50 in the assay with MKN45 and in the assay on SNU5 was below 100 nM each time.
Take `COc1cc2c(Oc3ccc(NC(=O)C4(C(=O)Nc5ccc(F)cc5)CC4)cc3)ccnc2cc1N1CCC(CN2CCC(OCCC(=O)N[C@H](C(=O)N3C[C@H](O)C[C@H]3C(=O)NCc3ccc(-c4scnc4C)cc3)C(C)(C)C)CC2)CC1`: the IC50 in the assay on MKN45 and in the assay with SNU5 was 100 to 500 nM each time.
Consider `O=C1CCC(N2Cc3cc(/C=C\CCN4CC5CC(C4)N5CC4CCN(c5cc6nccc(Oc7ccc(NC(=O)C8(C(=O)Nc9ccc(F)cc9)CC8)cc7)c6cc5F)CC4)ncc3C2=O)C(=O)N1` (centres unmarked), for which the IC50 with MKN45 and in the assay on SNU5 was below 100 nM in each case. Also, the Dmax-DDR1 result at DDR1 is “++ (When the maximum degradation percentage is greater than 75% and less than 85%)”.
In the case of `COc1cc2c(Oc3ccc(NC(=O)C4(C(=O)Nc5ccc(F)cc5)CC4)cc3)ccnc2cc1CNC(=O)C1CCN(CC2CCN(c3ccc4c(c3)C(=O)N(C3CCC(=O)NC3=O)C4=O)CC2)CC1` (centres unmarked), the IC50 in the assay with MKN45 is below 100 nM; in the assay with SNU5 it was 100 to 500 nM.
`O=C1CCC(N2Cc3cc(/C=C/CCN4CC5CC(C4)N5CC4CCN(c5cc6nccc(Oc7ccc(NC(=O)C8(C(=O)Nc9ccc(F)cc9)CC8)cc7)c6cc5F)CC4)ncc3C2=O)C(=O)N1` (centres unmarked): the IC50 with MKN45 and in the assay with SNU5 was below 100 nM throughout.
In the case of `COc1cc2c(Oc3ccc(NC(=O)C4(C(=O)Nc5ccc(F)cc5)CC4)cc3)ccnc2cc1N1CCC(N2CCC(C(=O)NCCCC(=O)N[C@H](C(=O)N3C[C@H](O)C[C@H]3C(=O)NCc3ccc(-c4scnc4C)cc3)C(C)(C)C)CC2)CC1`, the IC50 in the assay with MKN45 and in the assay with SNU5 was 1000 to 3000 nM each time. Also, the Dmax-DDR1 result on DDR1 is recorded as “++++ (When the maximum degradation percentage is greater than or equal to 85%)”.
Take `COc1cc2c(Oc3ccc(NC(=O)C4(C(=O)Nc5ccc(F)cc5)CC4)cc3)ccnc2cc1N1CCC(CN2CCN(CC(=O)N[C@H](C(=O)N3C[C@H](O)C[C@H]3C(=O)NCc3ccc(-c4scnc4C)cc3)C(C)(C)C)CC2)CC1`: the IC50 in the assay on MKN45 and with SNU5 was below 100 nM each time. Also, on DDR1, the Dmax-DDR1 entry was “++ (When the maximum degradation percentage is greater than 75% and less than 85%)”.
For the compound `COc1cc2c(Oc3ccc(NC(=O)C4(C(=O)Nc5ccc(F)cc5)CC4)cc3)ccnc2cc1N1CCC(CN2CC(C(=O)N[C@H](C(=O)N3C[C@H](O)C[C@H]3C(=O)NCc3ccc(-c4scnc4C)cc3)C(C)(C)C)C2)CC1`, the IC50 with MKN45 and with SNU5 was 100 to 500 nM throughout. Besides, the Dmax-DDR1 entry on DDR1 is “++ (When the maximum degradation percentage is greater than 75% and less than 85%)”.
